The text below walks through data of PubChem BioAssay AID602163 (The Scripps Research Institute Molecular Screening Center, 2012).

The entries are a selection whose mix differs from that of the whole data set. The source made the active and inactive calls. Cut-off read from the data, not from the text of the source: active = activation above about 7.5%; inactive = the rest.

This test has as its system Methionine sulfoxide reductase A (Bos taurus). Nature of the test: bovine MsrA enzyme activators, primary screen, biochemical, absorbance, HTS (AID 602163).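 Note: 0% = vehicle and 100% = reference activator.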 As to conditions: purified bovine MsrA, absorbance read-out; at 10.6 µM; stronger effect = higher value.
As to `O=C(NCC1(N2CCCCC2)CCCCC1)c1ccc(OC(F)F)cc1`, the activation was inactive: -2.45%.
Under `CC(C)(C)n1nnnc1C(c1cccc2ccccc12)N1CCC(n2c(=O)[nH]c3ccccc32)CC1` (stereo not drawn) stands inactive: 0.28%.
Regarding `c1ccc(CN2CCC(Nc3ccccc3)CC2)cc1`, the activation is inactive: -0.09%.
Take `O=c1[nH]c2ccccc2n1C1CCN(C(c2ccccc2)c2nnnn2C2CCCC2)CC1` (stereo not drawn): the activation is inactive: -8.16%.
In the case of `CCCN1CCC(Nc2cc(OC)cc(OC)c2)CC1`, the activation was inactive: 2.03%.
To `Cc1cc(N(CCCl)CCCl)ccc1C=O` belongs inactive: -3.8%; to `CN(C)C1(CNC(=O)c2cccc(C#N)c2)CCCCC1`, inactive: -3.42%.
With `CC(C)(C)OC(=O)N1CCC(N(C(=O)c2ccccc2)c2ccc(Cl)cc2)CC1`, the activation is inactive: 0.05%.
Take `N#Cc1ccc(C(=O)NCC2(N3CCCCC3)CCCCC2)cc1`: the activation was inactive: -9.57%.
Under `CCCCn1nnnc1C(c1cccc(OC)c1OC)N1CCC(n2c(=O)[nH]c3ccccc32)CC1` (stereo not drawn) stands inactive: 2.53%; under `O=C(OC1CN2CCC1CC2)C1c2ccccc2C=Cc2ccccc21` (stereo not drawn), inactive: -2.57%.
As to `O=c1[nH]c2ccccc2n1C1CCN(C(c2cccs2)c2nnnn2C2CCCC2)CC1` (stereo not drawn), the activation is inactive: -1.42%.
For the molecule `N/C(=N\O)c1c(N)no[n+]1[O-]`, the activation was inactive: -3.27%.
Under `CCOC(=O)N1CCC(Nc2ccc(C)cc2)CC1` stands inactive: -6.38%.
Regarding `COc1cccc(C(c2nnnn2C(C)(C)C)N2CCC(n3c(=O)[nH]c4ccccc43)CC2)c1OC` (stereo not drawn), the activation is inactive: -5.12%.
To `COc1ccc(C(=O)NCC2(N3CCOCC3)CCCCC2)cc1OC` belongs inactive: -8.05%; to `O=c1[nH]c2ccccc2n1C1CCN(C(c2ccnc3ccccc23)c2nnnn2C2CCCC2)CC1` (stereo not drawn), inactive: -0.76%; to `O=c1[nH]c2ccccc2n1C1CCN(C(c2cccs2)c2nnnn2C2CCCCC2)CC1` (stereo not drawn), inactive: -2.75%.
With `O=C(NCC1(N2CCOCC2)CCCCC1)c1cc(Br)ccc1Cl`, the activation was inactive: -1.51%.
`CCCCn1nnnc1C(c1ccccc1)N1CCC(n2c(=O)[nH]c3ccccc32)CC1` (stereo not drawn): the activation is inactive: -0.71%.
Consider `COc1cc(C(=O)NCC2(N3CCOCC3)CCCCC2)cc(OC)c1C`, for which the activation was inactive: 0.14%.
To `CN1CCC(Nc2ccc(Cl)cc2)CC1` belongs inactive: 0%; to `CCC(CO)(C(=O)OC1CN2CCC1CC2)c1ccccc1` (stereo not drawn), inactive: -9.82%.
Regarding `COc1cccc(C(=O)N(c2cc(C)cc(C)c2)C2CCN(C(=O)OC(C)(C)C)CC2)c1`, the activation is inactive: 0.45%.
For `COc1cc(OC)cc(C(=O)NCC2(N3CCOCC3)CCCCC2)c1`, the activation is inactive: -0.79%.
To `COc1cccc(C(c2nnnn2C2CCCC2)N2CCC(n3c(=O)[nH]c4ccccc43)CC2)c1OC` (stereo not drawn) belongs inactive: -1.71%.
To `O=c1[nH]c2ccccc2n1C1CCN(C(c2cc3ccccc3o2)c2nnnn2C2CCCC2)CC1` (stereo not drawn) belongs inactive: -0.57%.
Under `CCCOc1ccc(C(=O)NCC2(N(C)C)CCCCC2)cc1` stands inactive: -0.77%; under `CC(C)(C)OC(=O)N1CCC(Nc2ccccc2)CC1`, inactive: -11.5%; under `NN(c1ccccc1)C1CCN(CCc2ccccc2)CC1`, inactive: 0.19%.
For the molecule `O=C(O)C1(Nc2ccccc2)CCN(Cc2ccccc2)CC1`, the activation was inactive: -4.29%.
With `CCOc1ncccc1C(=O)NCC1(N2CCOCC2)CCCCC1`, the activation is inactive: -0.7%.
To `CN1CCC(Nc2ccc(F)c(Cl)c2)CC1` belongs inactive: -1.33%.
To `O=C(NCC1(N2CCCCC2)CCCCC1)c1ccco1` belongs inactive: -1.05%; to `CN(C)c1ccc(C(=O)NCC2(N3CCCCC3)CCCCC2)cc1`, inactive: -5.69%; to `Cn1c(=O)[nH]cc(N(CCCl)CCCl)c1=O`, inactive: -0.71%.
Under `Cc1ccccc1NC1(C#N)CCN(Cc2ccccc2)CC1` stands inactive: -2.21%.
Turning to `COc1ccc(C(c2nnnn2C2CCCCC2)N2CCC(n3c(=O)[nH]c4ccccc43)CC2)cc1` (stereo not drawn), the activation was inactive: -3.96%.
On to `CCN1CCC(Nc2cccc(F)c2)CC1`, for which the activation was inactive: -1.72%.
For `CC(C)(C)n1nnnc1C(c1ccnc2ccccc12)N1CCC(n2c(=O)[nH]c3ccccc32)CC1` (stereo not drawn), the activation is inactive: -11.5%.
As for `Cc1ccc(NC2(C#N)CCN(Cc3ccccc3)CC2)cc1`, the activation was inactive: -3.54%.
On to `Cc1ccc(C(=O)NCC2(N3CCCCC3)CCCCC2)o1`, for which the activation is inactive: 2.27%.
Take `Fc1ccccc1NC1CCN(Cc2ccccc2)CC1`: the activation was inactive: 0.33%.
Under `COc1cc(OC)cc(C(=O)NCC2(N3CCCCC3)CCCCC2)c1` stands inactive: -2.39%.
In the case of `O=c1[nH]c2ccccc2n1C1CCN(C(c2ccnc3ccccc23)c2nnnn2C2CCCCC2)CC1` (stereo not drawn), the activation was inactive: 0.66%.
Take `COc1cccc(C(c2nnnn2C2CCCCC2)N2CCC(n3c(=O)[nH]c4ccccc43)CC2)c1OC` (stereo not drawn): the activation was inactive: -0.85%.
Take `CC(=O)N(c1ccccc1)C1CCNCC1`: the activation is inactive: -7.2%.
For `CCC(c1nnnn1C1CCCCC1)N1CCC(n2c(=O)[nH]c3ccccc32)CC1` (stereo not drawn), the activation is inactive: -7.4%.
